Source: US20250011366A1, “Prodrugs of Antibiotic Teixobactin” (priority 2021, published 2025)

System: human red blood cells
Experiment: Hemolytic assay
Assay type: cell-based
Conditions: 1.25 μg/mL, with and without 0.002% polysorbate 80
Procedure: The hemolytic activity of the O-acyl isopeptide prodrugs and the corresponding teixobactin analogues were evaluated with human red blood cells (FIGS. 9A to 9H). Triton X-100 and melittin were used as positive controls and vancomycin and water (vehicle) were used as negative controls in the hemolysis assays. […] In contrast, 0.002% polysorbate 80 had no effect on the hemolytic activity of Lys10-teixobactin and Leu10-teixobactin and little effect on the corresponding O-acyl isopeptide prodrug analogues. When the hemolysis assays were performed with teixobactin, no hemolysis was observed up to 100 μg/mL without polysorbate 80 and modest hemolysis (4%) at 100 μg/mL with 0.002% polysorbate 80.
Preparation of Phosphate-Buffered Saline (PBS) Buffers. A 10×PBS buffer was prepared by dissolving 8.9 g of Na2HPO4, 1.2 g KH2PO4, 40 g NaCl, and 1 g KCl in 500 mL of 18 MO deionized water. The solution was stirred until the buffer salts were completely dissolved. The pH of the 10×PBS buffer was adjusted to 7.4 using either 1 M HCl or 1 M NaOH and was subsequently sterile filtered. To create a 1×PBS buffer, the 10×PBS buffer was diluted 10-fold using 18 MO deionized water. Another 1×PBS buffer was made, supplemented with 0.002% polysorbate 80.
Preparation of human red blood cells. Whole human blood was stored in a 4° C. in K2 EDTA to prevent coagulation. […]
Hemolytic assay readout. […]

## CC[C@H](C)[C@H](NC(=O)CN)C(=O)NCC(=O)N[C@@H](C)C(=O)N[C@H](C(=O)N[C@@H](CC(C)C)C(=O)N[C@@H](CCCCN)C(=O)N[C@H](C(=O)N[C@@H](CC(C)C)C(=O)N[C@H](C(=O)N[C@H](C(=O)NCC(=O)N[C@@H](CC(C)C)C(=O)N1CCC[C@H]1C(=O)N[C@@H](C)C(=O)N[C@@H](CC(C)C)C(=O)N[C@H](C(=O)N[C@@H](CO)C(=O)N[C@@H](Cc1c[nH]c2ccccc12)C(=O)N[C@H](C(=O)N[C@@H](CCCCN)C(=O)N[C@@H](CCCNC(=N)N)C(=O)N[C@@H](CCCCN)C(=O)N[C@@H](CCCNC(=N)N)C(=O)N[C@@H](CCC(N)=O)C(=O)N[C@@H](CCC(N)=O)C(N)=O)[C@@H](C)CC)[C@@H](C)CC)[C@@H](C)O)[C@@H](C)O)C(C)C)C(C)C [melittin]
  hemolysis: 26-30%
